How the values were obtained:
Caspase-1 (Homo sapiens) [1] = target: T1, Caspase-1 (Homo sapiens) (UniProt P29466)
T1 sequence (whole entry): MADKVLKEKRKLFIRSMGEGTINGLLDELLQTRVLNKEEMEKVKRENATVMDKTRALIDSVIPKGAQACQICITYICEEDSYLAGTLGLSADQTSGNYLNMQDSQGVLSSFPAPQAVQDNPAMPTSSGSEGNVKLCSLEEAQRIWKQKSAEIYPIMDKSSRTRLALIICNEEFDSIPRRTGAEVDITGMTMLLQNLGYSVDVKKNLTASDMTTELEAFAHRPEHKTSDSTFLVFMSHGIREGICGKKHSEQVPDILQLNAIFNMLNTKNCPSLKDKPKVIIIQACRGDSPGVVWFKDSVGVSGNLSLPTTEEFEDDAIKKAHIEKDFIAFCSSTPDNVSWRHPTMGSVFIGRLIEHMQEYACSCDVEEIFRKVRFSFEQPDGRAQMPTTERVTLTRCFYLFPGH

Caspase-1 (Homo sapiens) [2] = target: T1, Caspase-1 (Homo sapiens); remark: listed apart in the source
Caspase-1 (Homo sapiens) [3] = target: T1, Caspase-1 (Homo sapiens); remark: listed apart in the source

SMILES	k on (Caspase-1 (Homo sapiens) [2]) [M⁻¹ s⁻¹]	k on (Caspase-1 (Homo sapiens) [3]) [M⁻¹ s⁻¹]	also measured
CC(C)[C@H](NC(=O)OCc1ccccc1)C(=O)N[C@@H](C)C(=O)NC(CC(=O)O)C(=O)COC(=O)CCc1ccccc1 (some centres not stated)	–	–	k on (Caspase-1 (Homo sapiens) [1]): 1.6e+06 M⁻¹ s⁻¹
CC(C)[C@H](NC(=O)OCc1ccccc1)C(=O)N[C@@H](C)C(=O)N[C@@H](CC(=O)O)C(=O)COP(=O)(c1ccccc1)c1ccccc1	–	117000	–
CC(C)[C@H](NC(=O)OCc1ccccc1)C(=O)N[C@@H](C)C(=O)N[C@@H](CC(=O)O)C(=O)COC(=O)c1c(Cl)cccc1Cl	407000	–	–
CC(C)[C@H](NC(=O)OCc1ccccc1)C(=O)N[C@@H](C)C(=O)NC(CC(=O)O)C(=O)COc1ccc2ccc(=O)oc2c1 (some centres not stated)	–	160000	–

Further lines, with some results ahead:

k on (Caspase-1 (Homo sapiens) [2]) [M⁻¹ s⁻¹]	k on (Caspase-1 (Homo sapiens) [3]) [M⁻¹ s⁻¹]	SMILES	also measured
271000	–	CC(C)[C@H](NC(=O)OCc1ccccc1)C(=O)N1CCCCC1C(=O)N[C@@H](CC(=O)O)C(=O)COc1cc(C(F)(F)F)nn1-c1ccccc1 (some centres not stated)	–
280000	–	CC(C)[C@H](NC(=O)OCc1ccccc1)C(=O)N[C@@H](C)C(=O)NC(CC(=O)O)C(=O)COc1cc(C(F)(F)F)nn1-c1ccccc1 (some centres not stated)	–
–	252000	CC(C)[C@H](NC(=O)OCc1ccccc1)C(=O)N[C@@H](C)C(=O)NC(CC(=O)O)C(=O)COC1=C(Cc2ccccc2)C(=O)OC1 (some centres not stated)	–

— ChEMBL document CHEMBL1133635, “Caspases as targets for anti-inflammatory and anti-apoptotic drug discovery” (J Med Chem, 2000)
